Yeast mating assay 2: variants of the scFv Ab-95

From the AlphaSeq antibody data of Engelhart et al. 2022 (doi:10.1038/s41597-022-01779-4), copy in the FLAb collection.

Binding partner: SARS-CoV-2 spike HR2 peptide, sequence PDVDLGDISGINAS.

Parent: Ab-95, a human scFv built as VH, a (GGGGS)3 linker, VL. Only the CDRs of the light chain vary.
VH: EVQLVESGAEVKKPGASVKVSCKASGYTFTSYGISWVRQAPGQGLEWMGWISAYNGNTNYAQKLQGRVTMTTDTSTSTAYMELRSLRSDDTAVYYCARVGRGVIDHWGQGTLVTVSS
VL: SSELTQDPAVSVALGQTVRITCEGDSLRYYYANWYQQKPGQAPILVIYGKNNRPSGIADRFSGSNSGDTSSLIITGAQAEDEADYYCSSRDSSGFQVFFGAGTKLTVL

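Phage display of a naive human antibody library on the peptide gave the parent. The library (AAYL52) carries one to three amino acid substitutions per variant, with no insertions or deletions. AlphaSeq pools MATa yeast showing the antibodies with MATalpha yeast showing the peptide. Pairs that bind mate more often; barcode pairs of the diploids are counted by sequencing. Scores were corrected for input abundance and mapped to Kd with protein pairs of known affinity run in the same pool. There are three technical replicates.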

Variants are written as CDR1, CDR2 and CDR3 of the light chain (limits as in the source). Parent: EGDSLRYYYAN, GKNNRPS, SSRDSSGFQVF. Scale: log10 of Kd in nM, estimated from mating counts; low values are strong binders. An entry "nd" has no value in the source: the pair was not observed among the diploids in that replicate. This suggests poor binding but is not conclusive. As a blank, each scFv also met three strains without target: over library AAYL52, 28% of these pairings were detected, typically at 3.91 and seldom below 2.90. Also given: how often the same scFv was detected with the empty control strains.

EGDSLRYMYWN | GKNNRPS | SLRDSSGFQVF: nd, nd, nd (controls 2 of 9).
EGDSLRYIDAQ | GKNNRPS | SSRDSSGFQVF: 3.27, 3.22, nd (controls 2 of 9).
IGDSLRYYYLN | GKNNRPS | SSRDSRGFQVF: nd, 3.43, 4.63 (controls 2 of 9).
ESDGLRYYYAN | GKNNRPS | SSRDSSGIQVF: 2.87, 3.45, 2.56 (controls 1 of 9).
EWDSTRYYYAN | GKNNRPA | SSRDSSGFQVF: 3.02, 4.72, 2.39 (controls 0 of 9).
EGCWLRYYYAN | GKNNRPS | SSRDSSGFQVW: 3.62, 3.39, 3.98 (controls 2 of 9).
EGDSLRYYYAW | GKNSRPS | SSRDSSFFQVF: 4.92, nd, nd (controls 4 of 9).
EGDSLRYYYAH | GKNNRPS | SSRDSSGFQVF: nd, nd, nd (controls 3 of 9).
EGDSLRYYYAN | GKMLRPS | SSRDSSGIQVF: 3.06, nd, 4.11 (controls 3 of 9).
EGDSSRYYYAN | GKNNRPK | SSRDSSGFQVF: 2.77, 2.39, 2.70 (controls 4 of 9).
ECDSLRYYYAN | GKNNRPS | SWRDESGFQVF: 2.75, 3.24, 2.71 (controls 4 of 9).
EGDSLRYYYAN | GLNNRPF | SSRDESGFQVF: 2.85, 2.63, 2.06 (controls 4 of 9).
EGLSLRYYYAN | GKNNRPS | SSRDSSGFQVP: 2.93, 3.19, nd (controls 1 of 9).
EGTSLRYYYAN | GKNNMPS | SSRDSSGFQVS: nd, nd, 4.44 (controls 1 of 9).
EGDSLRYYYAN | GKNNRPS | SIRDFSGFQVF: 3.38, 2.66, 2.99 (controls 3 of 9).
EGDSFRYGYAN | GKNNRPS | SSRDSSPFQVF: 1.50, 1.41, 1.15 (controls 5 of 9).
HGRSLRYYYAN | GKNNRPS | SSRDSSMFQVF: nd, 3.72, 4.13 (controls 1 of 9).
EGDSLRYYYAN | GKKNRPS | SSRDSDGGQVF: nd, nd, nd (controls 2 of 9).
NGDMLRYYYAN | GKNNRPS | SSRDSRGFQVF: nd, nd, nd (controls 2 of 9).
EHDSLVYYYAN | GKNNEPS | SSRDSSGFQVF: 3.41, 2.80, 3.58 (controls 3 of 9).
EGDSLRYYYAN | GKNERPS | SSRDSSGFQSY: 1.98, 1.99, 1.47 (controls 1 of 9).
ELFGLRYYYAN | GKNNRPS | SSRDSSGFQVF: 2.87, nd, nd (controls 4 of 9).
LGDSLRYYYAN | GKNAFPS | SSRDSSGFQVF: nd, nd, 3.81 (controls 2 of 9).
EGDSLRYYYAN | VKNNRPP | SSRDSSGDQVF: 3.16, 5.20, 3.88 (controls 2 of 9).
EGDSLRYYYAN | GKNNRPA | SMRDSSGFQVR: 3.30, 3.85, 4.28 (controls 1 of 9).
EGDSLRYYYAN | GKNNRPS | STRISSGHQVF: 2.93, 3.33, 4.33 (controls 5 of 9).
EGDSLRYYYIN | GKNNRPP | LSRDSSGFQVF: nd, nd, 3.91 (controls 1 of 9).
EGDSLRYYYAN | GKNNRPS | SSPDTPGFQVF: 3.55, 5.12, 2.89 (controls 0 of 9).
EGKSLRYIYAN | GKNNRPS | SSRDSSGHQVF: 3.57, 3.24, 3.45 (controls 6 of 9).
EGDSLRYYYAN | GKNIRPS | SSRASSGFQVF: 2.14, 1.90, 1.40 (controls 2 of 9).
IGDSLRYYYAN | GKNNRPS | SSRDSSGNQVF: 2.68, 2.69, 3.35 (controls 1 of 9).
PGDSLRYYIAN | GKNNRPS | SSRDSSGFQVA: 2.79, 2.61, 2.85 (controls 2 of 9).
EGDSLRGYYAN | GKNFRPS | SSRDSSGFGVF: 1.68, 1.52, 1.31 (controls 6 of 9).
EYDSLRYYYAN | GKNNRPS | SSRDSSGFQVF: 4.51, 3.08, nd (controls 3 of 9).
ERDSLQYYYAN | GNNNRPS | SSRDSSGFQVF: 2.05, 2.01, 1.48 (controls 1 of 9).
IGDSLNIYYAN | GKNNRPS | SSRDSSGFQVF: nd, 4.34, 3.81 (controls 0 of 9).
EGNSLRYYVAN | GKNNRPS | SSRDSSGYQVF: 2.78, 2.63, 3.05 (controls 4 of 9).
EGDSLRYMYAN | GKQNRPS | SSRDSFGFQVF: nd, 3.34, nd (controls 6 of 9).
EGDSLRFYYAN | GHNYRPS | SSRDSSGFQVF: 3.73, 3.42, 3.16 (controls 4 of 9).
ETDSERYYYAN | GKNNRPS | SSRDQSGFQVF: 1.52, 1.49, 0.72 (controls 3 of 9).
EGDSLRHYYAN | GKNNRPS | SSRDSSGDQVF: 3.37, 2.63, 3.39 (controls 3 of 9).
EDDSLRYYYAN | GKNNRPS | SSRDSSGFQVC: nd, 3.68, nd (controls 2 of 9).
EGDSLRYYYEN | GKNNRPS | ESRDSSGFIVF: 3.85, 4.58, 3.56 (controls 1 of 9).
EGDSLRYYYAL | GKNNRPS | SMRDSSGFQVQ: 3.33, 3.83, nd (controls 1 of 9).
EGTCLRYYYAN | GKNNRPS | SSRDSSNFQVF: nd, 3.31, 3.49 (controls 1 of 9).
EKDSLRYYYAN | GKNNRPS | SSHDSHGFQVF: nd, 4.06, nd (controls 6 of 9).
EGDSLRYYYAN | GKNNRWS | SSRDSSGGQVR: 3.38, 3.17, 3.74 (controls 4 of 9).
EGTDLRYYYAN | GKNNRDS | SSRDSSGFQVF: 3.05, 3.44, 3.20 (controls 4 of 9).
EGDSLRYYYMN | GKNNFPS | SSRDSSDFQVF: nd, 5.35, 4.30 (controls 1 of 9).
EGISLRYMYAN | GKNNRPS | SKRDSSGFQVF: nd, 4.31, nd (controls 3 of 9).
EGDWLRYYYAN | GKNNRPS | SSRDSSGFQVF: 2.53, 2.84, 2.53 (controls 6 of 9).
EGDSLEYYYAN | GFNNRPS | SSRDSSGFQVF: 3.51, 3.47, 3.01 (controls 3 of 9).

5 of these entries, quoted again:

With EGDSLRYYYAN | GKNNRPS | STRISSGHQVF the result was 2.93, 3.33, 4.33 (controls 5 of 9).
With NGDMLRYYYAN | GKNNRPS | SSRDSRGFQVF the result was nd, nd, nd (controls 2 of 9).
With EWDSTRYYYAN | GKNNRPA | SSRDSSGFQVF the result was 3.02, 4.72, 2.39 (controls 0 of 9).
With IGDSLRYYYLN | GKNNRPS | SSRDSRGFQVF the result was nd, 3.43, 4.63 (controls 2 of 9).
With ETDSERYYYAN | GKNNRPS | SSRDQSGFQVF the result was 1.52, 1.49, 0.72 (controls 3 of 9).

In this assay the parent's reference entry averaged 2.31; its copy inside this library read 2.25.